Assays:
cardiomyocytes = test: Cell survival of cardiomyocytes, MTT assay, 72 hours in PBS free of serum and nutrients, hypoxic condition; format: cell-based, Wister rat; settings: 0 nM = 100%
Method: An 8 weeks old Wister rat was injected with ketamine and pentobarbital to quickly kill the […], and the heart was quickly separated from the mouse. An aorta was used to perfuse with Ca free Krebs-Henseleit buffer (KHB) solution, which was pre-heated to a temperature of about 34° C. to about 37° C., in heart direction. Thereafter, the KHB solution was switched to Hank's balanced salt solution (HBSS:GIBCO, Grand Island, N.Y.) containing 0.15% class II collagenase (Cooper Biomedical, Malvern, Pa.) and then perfused for about 30 to about 40 minutes. Thereafter, the product obtained therefrom was washed twice with a cell culture medium (Dulbecco's modified Eagle's medium, DMEM). Ventricles and atria were separated therefrom, ventricular tissues were thoroughly chopped and then stirred thoroughly for about 5 minutes in a shaker filled with cell culture medium (DMEM) containing class II collagenase that was pre-heated to a temperature of about 34° C. to about 37° C. Connective tissues that were not dissolved were filtered and a collagenase-containing solution was washed twice with the cell culture medium (DMEM). The product obtained therefrom was gently centrifuged at a speed of 10 g for 2 minutes, a supernatant obtained therefrom was separated and removed, and cell components were washed three times with a cell culture medium (DMEM) solution containing 1% fetal bovine serum (FBS; Sigma Chemical, St. Louis, Mo.). Thereafter, the cells obtained therefrom were stabilized in a cell culture medium (DMEM), 10% FBS, 10 mM N-2-hydroxyethylpiperazine-N′-2-ethanesulfonic acid (HEPES, GIBCO Laboratories, Grand Island, N.Y.), 2 mM L-glutamine, penicilin-stereptomycin (100 IU/mL, GIBCO) for 60 minutes.
Thereafter, the cells were divided in a 6-well plate at a density of 20×10^3 cells/cm^2 and then bromodeoxyuridine (BrdU, 10 uM, Sigma-Aldrich) was added to the cell culture medium over 3 days to prevent the proliferation of fibroblasts and progenitor cells (Lokuta et al, 1994; Miragoli et al., 2006). The cells were cultured in an incubator under conditions of 95% of O2, 5% of CO2, and a temperature of 37° C. for the next experiment.
Cells were seeded in a 96-well plate at a density of 2×10^4 cells/well and 200 ul for each well. In this regard, cell confluence was set at about 70% to about 80%. After 24 hours, when the cells have been stabilized, a 26 gauge or 28 gauge needle was used to remove a preexisting medium from the wells. 200 ul of PBS free of serum and nutrients was added to each well, the wells were divided into erythropoietin (EPO) treatment groups and MKX-2 treatment groups, which were further divided into experimental groups according to concentrations of 0 nM, 0.1 nM, 1 nM, 10 nM, 100 nM, and 1000 nM and then treated with a drug for 72 hours in a hypoxic condition, and then the cells were subjected to an MTT assay to compare cell survival rates. The EPO used was an Eporon injection (Dong-A Pharmaceuticals, Korea). All experimental groups for each concentration included 7 wells.
After a predetermined treatment time, 3-[4,5-dimethylthiazol-2-yl]-2,5-diphenyl tetrazolium bromide (MIT, Sigma, M2128) that was dissolved in a phosphate buffered saline (PBS) and then sterilization filtered by using a membrane filter having a thickness of 0.22 um was added to each well in an amount of 100 ul at a concentration of 1 mg/ml. In this regard, an MTT reagent was used after wrapping the MTT reagent with a foil sheet to block from light. […]

[1] = tested on: cerebral infarction induced Sprague-Dawley rat models; test: Cerebral infarction animal experiment: middle cerebral artery blockage/reperfusion, infarct volume by TTC dye; format: in vivo; settings: 3.6 μg/kg MKX-2 injected right after reperfusion, measured after 24 hours
Text: In the present experiment, Spague-Dawley (SD) rats weighing about 280 g to about 330 g were used, which were purchased from Koatech Inc. (Seoul, Korea). The number of rats used was 39, wherein 13 of them were used as a control group and another 26 were divided into 13 in a MKX-2 treatment group and 13 in an EPO treatment group.
To induce cerebral infarction, a method of temporarily blocking a left middle cerebral artery and then reperfusing the same was used, and an intraluminal filament technique, which was modified from the Koizumi method was used. Then, each SD rat was anesthetized with a mixture gas of 70% nitrous oxide and 30% oxygen along with isoflurane (3% for induction and 2% for surgical procedure). During the surgery, an excision was made slightly leftwards from the center of the neck and the left common carotid artery was carefully separated without damaging surrounding vagus nerves. […]
The cerebral infarction area was measured by an image analyzer with LeicaQwin program (Leica Microsystem Image Solution Ltd., Cambridge, England) and a volume (mm^3) was calculated as a sum of infarct volumes (=infarct area of a slice×thickness) of the slices, and then an average and a standard deviation were calculated for each experimental group. […]

## CC[C@H](C)[C@H](N)C(=O)N[C@@H](CO)C(=O)NCC(=O)N[C@@H](CC(C)C)C(=O)N[C@@H](CCCNC(=N)N)C(=O)N[C@@H](CO)C(=O)N[C@@H](CC(C)C)C(=O)N[C@H](C(=O)N[C@H](C(=O)N[C@@H](CC(C)C)C(=O)N[C@@H](CC(C)C)C(=O)N[C@@H](CCCNC(=N)N)C(=O)N[C@@H](C)C(=O)N[C@@H](CC(C)C)C(=O)NCC(=O)N[C@@H](C)C(=O)N[C@@H](CCC(N)=O)C(=O)N[C@@H](CCCCN)C(=O)N[C@@H](CCC(=O)O)C(=O)N[C@@H](CC(C)C)C(=O)N[C@@H](CCSC)C(=O)O)[C@@H](C)O)[C@@H](C)O [MKX-2]
cardiomyocytes; 0.1 nM
  cell survival rate compared with 0 nM: not substantially different
cardiomyocytes; 1 nM
  cell survival rate compared with the initial condition: substantially decreased
cardiomyocytes; 10 nM
  cell survival rate: 102.67 ± 3.22%
cardiomyocytes; 100 nM
  cell survival rate: 112.28 ± 2.17%
cardiomyocytes; 1000 nM
  cell survival rate: 115.05 ± 0.90%
[1]
  volume of cerebral infarction: 159.24 ± 27.78 mm^3

Source: patent US20140378378A1, “ERYTHROPOIETIN-DERIVED PEPTIDE AND USE THEREFOR” (priority 2011, published 2014)
